Test system: human and plant cells
Experiment: Toxicity to human and plant cells

SMILES: CC[C@H](C)[C@H](NC(=O)[C@H](CCCCN)NC(=O)[C@H](CC(C)C)NC(=O)[C@@H](NC(=O)[C@H](CCCCN)NC(=O)[C@H](CCCCN)NC(=O)[C@@H](NC(=O)[C@H](CC(C)C)NC(=O)[C@H](CCCCN)NC(=O)[C@@H](N)CCCCN)[C@@H](C)CC)[C@@H](C)CC)C(=O)N[C@@H](CC(C)C)C(=O)O [Peptide P11, KKLIKKILKIL]
- concentration toxic to human and plant cells: ≥ 40 µM
